Source: PubChem BioAssay AID651658 (Broad Institute, 2012)
Only a part is listed here, and it is no random draw. Activity calls are given as the source filed them.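 Rule for the calls: active = mean Tm shift, scaled 0 neutral to 100 positive control, at about 1.3% or above, every replicate too (limit read from the data); inconclusive = no clear call, values can overlap the other calls; inactive = the rest.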

Protein sequences, listed by entry. Tags and fused reporters are not part of them.
UniProt Q9HCT0, whole entry: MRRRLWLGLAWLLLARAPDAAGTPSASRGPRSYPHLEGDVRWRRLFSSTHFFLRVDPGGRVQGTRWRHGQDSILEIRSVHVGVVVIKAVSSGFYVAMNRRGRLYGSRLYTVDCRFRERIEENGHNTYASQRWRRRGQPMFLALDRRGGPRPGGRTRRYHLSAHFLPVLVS

biological target: Fibroblast growth factor 22 (Homo sapiens) (UniProt Q9HCT0); assay: binders of human FGF22 protein, primary screen, FGF22 synaptogenesis inhibitor project, biophysical, thermal shift, single point (AID 651658); conditions: recombinant FGF22 thermal shift, SYPRO orange fluorescence; at 9.99 µM; stronger effect = higher value; percent of sucrose octasulfate shift, DMSO zero

Structure (SMILES)	activity (Tm shift, normalised)
O=[As](O)(O)c1cccnc1	inactive: -0.27%
COc1cc(C(=O)NCC2(N3CCOCC3)CCCCC2)cc(Cl)c1OC(C)C	inactive: 0.101%
CS(=O)(=O)c1ccc(Cl)c(NC(=O)COC(=O)C(O)(c2ccccc2)c2ccccc2)c1	inactive: -0.001%
COc1ccccc1OP(C)(=O)Nc1cccc(Br)c1 (configuration not stated)	inactive: 0.243%
O=C(OC1CN2CCC1CC2)c1ccc(Cl)cc1 (configuration not stated)	inactive: -0.17%
CCOC(=O)c1ccc(NP(C)(=O)Oc2cc(C)cc(C)c2)cc1 (configuration not stated)	inactive: 0.114%
O=[As](O)(c1cccc(O)c1)c1cccc(O)c1	inactive: -0.205%
Cc1cc(C)cc(OP(C)(=O)Nc2ccc(C)cc2C)c1 (configuration not stated)	inactive: 0.154%
CCCOP(=S)(Nc1nc(N)cc(=O)[nH]1)OCCC	inactive: -0.087%
CP(=O)(Nc1cccc(Br)c1)Oc1ccccc1 (configuration not stated)	inactive: 0.682%
Nc1cccc2c([As](=O)(O)O)cccc12	inactive: -0.289%
Cc1ccc(NCCc2c([N+](=O)[O-])cc([N+](=O)[O-])cc2[N+](=O)[O-])cc1	inactive: 0.406%
CCOP(=O)(Nc1cccc2ccccc12)OCC	inactive: 0.046%
CCOP1(=S)c2c(C)nn(CCC#N)c2N=C(c2ccccc2F)N1C (configuration not stated)	inactive: 0.254%
O=C(O)c1cccc(Nc2c([N+](=O)[O-])cc([N+](=O)[O-])cc2[N+](=O)[O-])c1	inactive: -0.068%
O=P(Nc1nccs1)(Oc1ccccc1)Oc1ccccc1	inactive: 0.167%
Nc1ccccc1[As](=O)(O)c1ccccc1	inactive: 0.145%
O=C(O)COc1ccc([As](=O)(O)O)cc1[N+](=O)[O-]	inactive: -0.19%
CN(C)C(=O)c1cc([N+](=O)[O-])cc2c1-c1c(cc([N+](=O)[O-])cc1[N+](=O)[O-])C2=O	inactive: -0.061%
CN(C(=O)Cc1ccc(Cl)c(Cl)c1)[C@H]1CC[C@@]2(CCCO2)C[C@@H]1N1CCCC1	inactive: 0.077%
N#CCCN(C(=O)COC(=O)C(O)(c1ccccc1)c1ccccc1)c1ccc(F)cc1	inactive: -0.029%
CN(C(=O)Cc1ccccc1)[C@@H]1CC[C@]2(CCCO2)C[C@H]1N1CCCC1	inactive: -0.204%
CCOP1(=S)c2c(C)nn(CCC#N)c2N=C(c2ccc(F)cc2)N1C (configuration not stated)	inactive: 0.092%

Structure (SMILES)	activity (Tm shift, normalised)
CC1CCC(C(C)C)C(OP(=O)(Nc2ccccn2)c2ccccc2)C1 (configuration not stated)	inactive: 0.105%
Cc1ccc(C(=O)OC2CN3CCC2CC3)cc1 (configuration not stated)	inactive: -0.067%
O=C(/C=C/c1ccccc1)OC1CN2CCC1CC2 (configuration not stated)	inactive: -0.034%
CCCC1OP(=O)(Nc2ccccc2)OCC1CC (configuration not stated)	inactive: 0.481%
CN(C)C1(CNC(=O)c2ccc(S(C)(=O)=O)cc2)CCCCC1	inactive: 0.129%
O=[N+]([O-])c1cc([N+](=O)[O-])c(Nc2nnnn2CCO)c([N+](=O)[O-])c1	inactive: -0.007%
CCOC(=O)C(CC)C1=NC(C)(C)Cc2ccccc21.O=[N+]([O-])c1cc([N+](=O)[O-])c(O)c([N+](=O)[O-])c1 (configuration not stated)	inactive: 1.06%
CN1CCCCC1COC(=O)C1(O)c2ccccc2CCc2ccccc21 (configuration not stated)	inactive: -0.007%
O=[As](O)(c1cccs1)c1cccs1	inactive: 0.35%
NS(=O)(=O)c1cccc(NC(=O)COC(=O)C(O)(c2ccccc2)c2ccccc2)c1	inactive: -0.135%
COc1ccc(-c2ccccn2)cc1.O=[N+]([O-])c1cc([N+](=O)[O-])c(O)c([N+](=O)[O-])c1	inactive: -0.421%
CCCOc1ccc(NP(C)(=O)Oc2ccc(Cl)cc2)cc1 (configuration not stated)	inactive: 0.034%
Nc1cccc([As](=O)(O)c2ccccc2)c1	inactive: 0.508%
CCOP(=O)(Nc1ccc(C)cn1)OCC	inactive: -0.245%
CN(CCCl)Cc1cc(Cl)c(NC2=NCCN2)c(Cl)c1	inactive: -0.158%
CCC1=CC2Cc3nc4ccc(Cl)cc4c(N)c3C(C1)C2 (configuration not stated)	inactive: -0.007%
O=C(O)C(O)c1ccc(N(CCCl)CCCl)cc1.c1ccncc1 (configuration not stated)	inactive: 0.084%
O=[N+]([O-])c1cc([N+](=O)[O-])c(-n2nnc3ccccc32)c([N+](=O)[O-])c1	inactive: 0.236%
CCOP(=O)(NC(=NC(C)c1ccccc1)NC(C)c1ccccc1)OCC (configuration not stated)	inactive: -0.292%
O=P1(N(CCCl)CCCl)NCCC(C(F)(F)F)O1 (configuration not stated)	inactive: -0.185%
CN(Cc1cccnc1)C(=O)COc1ccc(Cl)c(Cl)c1.O=[N+]([O-])c1cc([N+](=O)[O-])c(O)c([N+](=O)[O-])c1	active: 1.41%
CC(C)(C)C(=O)NC(Sc1ncccn1)C(Cl)(Cl)Cl (configuration not stated)	inactive: 0.144%
COc1ccccc1CNC(=O)COC(=O)C(O)(c1ccccc1)c1ccccc1	inactive: 0.182%

Structure (SMILES)	activity (Tm shift, normalised)
O=[N+]([O-])c1cc([N+](=O)[O-])c(-c2cnn(-c3ccccc3)c2)c([N+](=O)[O-])c1	inactive: -0.242%
CC(C)/C=N\N=C(\N)N[N+](=O)[O-]	inactive: 0.345%
CN(C(=O)Cc1ccc(Cl)c(Cl)c1)[C@@H]1CCCC[C@H]1N1CCCC1	inactive: 0.051%
CN(C(=O)Cc1ccc(Cl)c(Cl)c1)C1CCCC[C@@H]1N1CCCC1 (some centres not stated)	inactive: -0.119%
COP1(=S)c2c(C)nn(CCC#N)c2N=C(c2ccc(F)cc2)N1C (configuration not stated)	inactive: 0.192%
CP(=O)(Nc1ccc(SC(F)(F)F)cc1)Oc1ccc(Cl)cc1 (configuration not stated)	inactive: -0.085%
CP(=O)(Oc1ccccc1)OC(c1ccccc1)C(F)(F)F (configuration not stated)	inactive: -0.171%
COC(=O)C1(C)COP(=O)(N2CCCC2)OC1 (configuration not stated)	inactive: -0.692%
CP(=O)(NC(=O)Nc1ccccc1)Oc1ccccc1 (configuration not stated)	inactive: -0.245%
CCc1ccc(OP(C)(=O)N2CCN(c3ccc([N+](=O)[O-])cc3)CC2)cc1 (configuration not stated)	inactive: -0.353%
O=C(Nc1ccncc1[N+](=O)[O-])c1ccc([N+](=O)[O-])cc1[N+](=O)[O-]	inactive: 0.17%
CCOC(=O)c1ccc(NP(C)(=O)Oc2ccc(OC)cc2)cc1 (configuration not stated)	inactive: -0.145%
CCOC(=O)c1ccc(NC(=O)C(C)(CCl)SC)cc1 (configuration not stated)	inactive: -0.337%
O=[N+]([O-])c1cc([N+](=O)[O-])c(O)c([N+](=O)[O-])c1.c1ccc(Oc2ccncc2)cc1	inactive: 0.257%
O=C(OC1CN2CCC1CC2)c1cccc([N+](=O)[O-])c1 (configuration not stated)	inactive: -0.102%
CP(=O)(Nc1ccccn1)Oc1ccc(Cl)cc1 (configuration not stated)	inactive: 0.153%
CC1CCNP(=O)(N(CCCl)CCCl)O1 (configuration not stated)	inactive: -0.184%
O=C(O)C(=O)c1ccc(N(CCCl)CCCl)cc1.c1ccc(Nc2ccccc2)cc1	inactive: 0.173%
CCOC(=O)Nc1ccc([As](=O)(O)O)c(O)c1	inactive: -0.045%
CCCCOc1ccc(C(=O)NCC2(N3CCCCC3)CCCCC2)cc1OC	inactive: -0.324%
CCOC(=O)Nc1cccc([As](=O)(O)O)c1	inactive: -0.079%
CP(=O)(Nc1ccccc1Br)Oc1ccccc1 (configuration not stated)	inactive: -0.075%
O=[N+]([O-])c1ccc(Nc2ccc(Oc3ccc([N+](=O)[O-])cc3[N+](=O)[O-])cc2)c([N+](=O)[O-])c1	inactive: -0.21%

Structure (SMILES)	activity (Tm shift, normalised)
O=P(Nc1ccccn1)(c1cccc2ccccc12)c1cccc2ccccc12	inactive: -0.076%
Cc1cc(SC(NC=O)C(Cl)(Cl)Cl)ncn1 (configuration not stated)	inactive: 0.156%
COc1ccccc1OP(C)(=O)Nc1ccccc1 (configuration not stated)	inactive: 0.135%
C[As](=O)(O)c1cccc(C(=O)O)c1	inactive: -0.04%
O=[As](O)(c1ccc(O)cc1)c1ccccc1O	inactive: -0.033%
O=[N+]([O-])c1ccc(-c2cc([N+](=O)[O-])c(O)c([N+](=O)[O-])c2)cc1	inactive: 0.027%
COc1cc(C(=O)NCC2(N3CCOCC3)CCCCC2)ccc1OCC(C)C	inactive: -0.022%
O=[N+]([O-])c1cc([N+](=O)[O-])c(Nc2cccnc2)c([N+](=O)[O-])c1	inactive: -0.167%
O=[N+]([O-])c1ccc2c(c1)C=Nc1ccccc1O2	inactive: 42.8%
Cc1ccc2nc3c(c(C)c2c1)CC(C(Cl)Cl)S3 (configuration not stated)	inactive: 0.46%
[N-]=[N+]=NC1CCCCC1NC(=O)c1cc([N+](=O)[O-])cc([N+](=O)[O-])c1 (configuration not stated)	inactive: -0.048%
Cc1ccc(OP(=O)(Nc2ccc([N+](=O)[O-])cn2)Oc2ccc(C)cc2)cc1	inactive: 0.029%
CC(C)(C)c1ccc(OP(C)(=O)Nc2ccc(SC(F)(F)F)cc2)cc1 (configuration not stated)	inactive: 0.389%
Cc1cccc(C)c1OP(C)(N)=O (configuration not stated)	inactive: -0.156%
COC(=O)C1(C)COP(=O)(N2CCCCCC2)OC1 (configuration not stated)	inactive: -0.036%
CC(C)c1ccc(OP(=O)(Nc2ccccn2)Oc2ccccc2F)cc1 (configuration not stated)	inactive: 0.187%
Cc1cc(C)cc(OP(C)(N)=O)c1 (configuration not stated)	inactive: -0.041%
COc1ccccc1OP(C)(=O)Nc1cc(Cl)ccc1C (configuration not stated)	inactive: 0.269%
CC(C)NC(=O)NP(=O)(Oc1ccccc1)Oc1ccccc1	inactive: 0.135%
O=C(OC1CN2CCC1CC2)c1cccc2[nH]cnc12 (configuration not stated)	inactive: -0.253%
CCN(CC)CCCOC(=O)C(O)(c1ccccc1)c1ccccc1	inactive: -0.015%
Cc1cc(=O)[nH]c(N[N+](=O)[O-])n1	inactive: 0.073%
Cc1c2c(nc3ccccc13)SC(C(Cl)Cl)C2 (configuration not stated)	inactive: 0.38%
